Test results: publication doi:10.1101/2023.01.11.523589v2 (biorxiv, 2023)
pIC50: −log10 of the molar value.

The chains behind the UniProt entries cited, without tags or fusion partners.
UniProt P40337, whole entry: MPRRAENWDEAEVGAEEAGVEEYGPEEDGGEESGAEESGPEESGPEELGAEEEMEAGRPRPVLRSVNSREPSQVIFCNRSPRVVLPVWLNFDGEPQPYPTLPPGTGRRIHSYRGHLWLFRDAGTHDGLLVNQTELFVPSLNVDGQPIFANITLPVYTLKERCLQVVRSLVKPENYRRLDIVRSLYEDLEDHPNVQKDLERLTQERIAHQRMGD

Target: VHL (full-length, NanoLuc fusion) (Homo sapiens, UniProt P40337)
Assay: NanoBRET tracer displacement, permeabilised HEK293T cells
Type: biochemical

**Q.** `Cc1ncsc1-c1ccc(CNC(=O)[C@@H]2C[C@@H](O)CN2C(=O)[C@@H](NC(=O)Cc2ccc(CNC(=O)c3ccc(-c4ccc(N5CCN(C)CC5)c(NC(=O)c5c[nH]c(=O)cc5C(F)(F)F)c4)cc3)cc2)C(C)(C)C)cc1` [AD142] was tested. Which pIC50 did it give?
**A.** 4.79
